Measurements published in US9291619B2, “Method for detecting non-transferrin bound iron” (Yissum Research Development Company of the Hebrew …, priority 2011, dated 2016).

Assays:
[1] = LPI (labile plasma iron) assay without NTA; type: biochemical, human; details: added to sera from 6 thalassemic patients; citrate 0.15 mM, albumin 10 mg/ml, uric acid 0.5 mM
Description: Determination of LPI and DCI. The properties of the assays used in this study in their different modalities are compiled in Table 2, below.
LPI determination, The LPI (Labile iron in plasma) assay was used as described previously or in the presence of NTA added from a concentrated solution. In experiments testing the effects of various additives on LPI, 20 μl of the additives dissolved in HBS (HEPES buffered saline composed of 20 mM HEPES, 150 mM NaCl, pH 7.4) were mixed with 20 μl of serum. Control samples and iron standards were similarly diluted with HBS. LPI assays without added NTA (‘redox-active LPI’) are designated “LPI” and LPI assays with added NTA (0.5 mM unless stated otherwise) are designated “eLPI”.
Measurements of LPI were originally designed for the detection of labile forms of iron in native human plasma or serum. […] This led to simple and sensitive assays that are performed under nearly physiological conditions, with 40 μM ascorbate added to initiate redox cycling of the iron and ensuing generation of reactive oxygen species (ROS) that are quantified by a fluorescence assay (Table 1). […] The detected LPI reflects the most labile or redox-active forms of NTBI in native plasma or serum, but not putative forms bound to non-labile ligands (e.g. citrate, albumin) In addition, the detection of LPI might be susceptible to masking by plasma antioxidants. […]

[2] = DCI (directly chelatable iron) assay with fluorescein-DFO; type: biochemical, human; details: added to thalassemia sera
From the text: DCI determination. The DCI assay (directly chelatable iron) was used for sample analysis of labile iron by assessing its binding to fluorescein-DFO (Table 1) with a fluorescence plate reader or adapted for flow cytometry using as analytical probe fluorescein and DFO covalently coupled to chemically modified polystyrene beads (Spherotec Inc., Lake Forest, Ill., USA) (and an Eclipse instrument (iCyt, Champaign, Ill., USA) (Breuer et al, to be published elsewhere). In tests of the effect of NTA on DCI determination, NTA was added from a stock solution directly to the assay reagents. In experiments testing the effects of various additives on DCI, 20 μl of the additives dissolved in HBS were mixed with 20 μl of serum samples and the combined mixture (40 μl) was used in the assay. Control samples and iron standards were similarly diluted with HBS. In previous publications the term DCI has always indicated the assay format without NTA. In the present work the two formats of the
DCI assay are designated DCI (−) (without NTA) and DCI (+) (with 0.1 mM NTA).
For comparing eLPI with NTBI, the present inventors have employed an alternative assay for NTBI, termed directly-chelatable iron or DCI (FIG. 2, lower panel). Unlike LPI and eLPI which measure iron redox activity, DCI measures the accessibility of NTBI to a fluorescent, high-affinity chelator probe (fluorescein-DFO). […]

human serum albumin: iron-depleted human serum albumin Fraction V, dialyzed with DFO
effect of added serum component on measured LPI values [1]: significantly attenuated
effect of added serum component on DCI values [2]: attenuating effect
